Measured values published in paper PMC4358366 (eLife, 2014).

Target: T1, recombinant human Sirt3 (102–399) (human, UniProt Q9NTG7 102-399)
T1 construct: human Sirt3, NAD-dependent deacetylase, residues 102-399 of the 399 a.a. protein; Plasmid in pTrcHis 2C was a gift from Dr Eric Verdin; the tags are inferred from the vector and the nickel column; also called recombinant Sirt3; source: E. coli Rosetta, purified (nickel column, Superdex75 gel filtration)
T1 sequence (looked up): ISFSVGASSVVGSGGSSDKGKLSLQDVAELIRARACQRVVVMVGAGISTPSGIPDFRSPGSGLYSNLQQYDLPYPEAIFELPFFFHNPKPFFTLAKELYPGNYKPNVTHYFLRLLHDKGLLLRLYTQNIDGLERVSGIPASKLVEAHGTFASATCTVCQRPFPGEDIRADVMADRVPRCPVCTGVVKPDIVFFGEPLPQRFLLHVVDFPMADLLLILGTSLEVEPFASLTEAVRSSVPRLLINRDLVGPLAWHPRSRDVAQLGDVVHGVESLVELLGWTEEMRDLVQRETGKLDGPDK
Assay: crystal structure; Sirt3 (102–399) with H3K4Cr (1–10) peptide, 1:20 protein/peptide; hanging drop, 291 K; 2.95 Å; six complexes in the asymmetric unit
Settings: both partners purified

binding result: binds
B1: H3K4Cr (1–10) peptide (peptide, UniProt P68431 2-11, looked up)
peptide: ARTKQTARKS
modifications: crotonyl-lysine at 4
notes: histone H3, residues 1-10, lysine-4 crotonylated; residues 2-8 (RTKQTAR) seen in the electron density; Synthesized on Rink-Amide MBHA resin, so a C-terminal amide is likely; also called H3K4Cr peptide; source: synthetic peptide
